From patent US8088574B2, “Poly(A) polymerase” (Wisconsin Alumni Research Foundation, priority 2007, dated 2012)

Tested on: HO-1 mRNA
Assay: quantitative real-time PCR of HO-1 mRNA in HEK 293 cells
Details: HEK 293 cells pretreated with CKI inhibitor (IC261 50 μM, CKI-7 250 μM, 2.5 h); for HO-1 mRNA induction after exposure to 100 μM tBHQ: tBHQ 4 hours

NCCNS(=O)(=O)c1ccc(Cl)c2ccncc12 [CKI-7]
basal levels of HO-1 mRNA: reduced the basal levels of HO-1 mRNA | HO-1 mRNA induction after exposure to 100 μM tBHQ: blocked HO-1 mRNA induction

COc1cc(OC)c(C=C2C(O)=Nc3ccccc32)c(OC)c1 [IC261]
basal levels of HO-1 mRNA: reduced the basal levels of HO-1 mRNA | HO-1 mRNA induction after exposure to 100 μM tBHQ: blocked HO-1 mRNA induction
